The source of these data is patent publication US10053462B2, “P2X7 modulators” (Jansssen Pharmaceutica NV, priority 2013, dated 2018).

Amino acid sequences for entries named in this document (tags omitted). A change or cut given only in a name is not applied to a line headed by its entry.
UniProt Q99572: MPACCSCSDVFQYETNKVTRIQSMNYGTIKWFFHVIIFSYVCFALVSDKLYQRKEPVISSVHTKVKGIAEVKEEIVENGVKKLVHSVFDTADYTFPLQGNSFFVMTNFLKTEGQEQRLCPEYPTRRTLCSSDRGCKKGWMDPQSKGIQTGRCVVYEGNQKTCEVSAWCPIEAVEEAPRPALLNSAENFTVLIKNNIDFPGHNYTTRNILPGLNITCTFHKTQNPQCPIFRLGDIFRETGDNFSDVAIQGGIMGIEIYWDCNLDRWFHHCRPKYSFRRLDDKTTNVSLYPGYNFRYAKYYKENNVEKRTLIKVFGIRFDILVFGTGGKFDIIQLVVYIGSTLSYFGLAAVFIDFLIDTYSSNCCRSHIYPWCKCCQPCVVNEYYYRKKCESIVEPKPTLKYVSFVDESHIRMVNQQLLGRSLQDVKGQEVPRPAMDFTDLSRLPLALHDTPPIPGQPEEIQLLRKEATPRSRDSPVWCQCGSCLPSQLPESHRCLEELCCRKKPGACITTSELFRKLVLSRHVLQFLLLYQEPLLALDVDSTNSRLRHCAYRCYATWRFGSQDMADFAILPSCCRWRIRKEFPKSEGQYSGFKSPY

This experiment deals with P2X7 (Homo sapiens (Human), UniProt Q99572). Briefly: P2X7 antagonism in human peripheral blood mononuclear cells (PBMCs), IL-1β release. As to conditions: P2X7, Table 2 (additional runs), 10 μM compound, LPS 30 ng/ml + Bz-ATP 0.5 mM, read-out: PBMC 10 μM (% control). The class given is cell-based.

For the molecule `O=C(c1cccc(C(F)(F)F)c1Cl)N1[C@@H]2CCC[C@H]1c1nnc(-c3cccnc3)n1C2` (stereo in doubt) [Example 15, (6R*,10S*)-11-{[2-Chloro-3-(trifluoromethyl)phenyl]carbonyl}-3-pyridin-3-yl-5,6,7,8,9,10-hexahydro-6,10-epimino[1,2,4]triazolo[4,3-a]azocine], the remaining activity at 10 µM stood at 89.8%.

Regarding `O=C(c1cccc(C(F)(F)F)c1Cl)N1[C@H]2CC[C@@H]1c1nnc(-c3ccc(Cl)s3)n1C2` [Example 55, (6S,9R)-3-(5-Chlorothiophen-2-yl)-10-{[2-chloro-3-(trifluoromethyl)phenyl]carbonyl}-6,7,8,9-tetrahydro-5H-6,9-epimino[1,2,4]triazolo[4,3-a]azepine], the remaining activity at 10 µM worked out at 15.3%.

With `O=C(c1cccc(C(F)(F)F)c1Cl)N1[C@H]2CC[C@@H]1c1nnc(-c3cnccn3)n1C2` [Example 42, (6S,9R)-10-{[2-Chloro-3-(trifluoromethyl)phenyl]carbonyl}-3-pyrazin-2-yl-6,7,8,9-tetrahydro-5H-6,9-epimino[1,2,4]triazolo[4,3-a]azepine], the remaining activity at 10 µM is -21.3%.

Take `O=C(c1cccc(C(F)(F)F)c1Cl)N1[C@H]2CC[C@@H]1c1nnc(-c3ccc[nH]3)n1C2` [Example 62, (6S,9R)-10-{[2-Chloro-3-(trifluoromethyl)phenyl]carbonyl}-3-(1H-pyrrol-2-yl)-6,7,8,9-tetrahydro-5H-6,9-epimino[1,2,4]triazolo[4,3-a]azepine]: the remaining activity at 10 µM was 14.1%.

For the molecule `O=C(c1ccc(F)c(C(F)(F)F)c1Cl)N1[C@H]2CC[C@@H]1c1nnc(-c3ccccn3)n1C2` [Example 43, (6S,9R)-10-{[2-Chloro-4-fluoro-3-(trifluoromethyl)phenyl]carbonyl}-3-pyridin-2-yl-6,7,8,9-tetrahydro-5H-6,9-epimino[1,2,4]triazolo[4,3-a]azepine], the remaining activity at 10 µM was -18.6%.

As for `O=C(c1cccc(C(F)(F)F)c1Cl)N1[C@H]2CC[C@@H]1c1nnc(-c3cccs3)n1C2` [Example 61, (6S,9R)-10-{[2-Chloro-3-(trifluoromethyl)phenyl]carbonyl}-3-thiophen-2-yl-6,7,8,9-tetrahydro-5H-6,9-epimino[1,2,4]triazolo[4,3-a]azepine], the remaining activity at 10 µM is 11.2%.

Consider `O=C(c1cccc(C(F)(F)F)c1Cl)N1[C@H]2CCC[C@@H]1c1nnc(-c3ncc(F)cn3)n1C2` (stereo in doubt) [Example 17, (6S*,10R*)-11-{[2-Chloro-3-(trifluoromethyl)phenyl]carbonyl}-3-(5-fluoropyrimidin-2-yl)-5,6,7,8,9,10-hexahydro-6,10-epimino[1,2,4]triazolo[4,3-a]azocine], for which the remaining activity at 10 µM turned out to be 84.2%.

`O=C(c1ccc(Cl)cc1Cl)N1[C@H]2CCC[C@@H]1c1nnc(-c3ncc(F)cn3)n1C2` (stereo in doubt) [Example 20, (6S*,10R*)-11-[(2,4-Dichlorophenyl)carbonyl]-3-(5-fluoropyrimidin-2-yl)-5,6,7,8,9,10-hexahydro-6,10-epimino[1,2,4]triazolo[4,3-a]azocine]: the remaining activity at 10 µM is 104%.

For the molecule `Cc1nc(-c2nnc3n2C[C@@H]2CC[C@H]3N2C(=O)c2cccc(C(F)(F)F)c2Cl)cs1` [Example 56, (6S,9R)-10-{[2-Chloro-3-(trifluoromethyl)phenyl]carbonyl}-3-(2-methyl-1,3-thiazol-4-yl)-6,7,8,9-tetrahydro-5H-6,9-epimino[1,2,4]triazolo[4,3-a]azepine], the remaining activity at 10 µM turned out to be 25.9%.

For `O=C(c1cccc(C(F)(F)F)c1Cl)N1[C@H]2CC[C@@H]1c1nnc(-c3ncc(F)cn3)n1C2` [Example 50, (6S,9R)-10-{[2-Chloro-3-(trifluoromethyl)phenyl]carbonyl}-3-(5-fluoropyrimidin-2-yl)-6,7,8,9-tetrahydro-5H-6,9-epimino[1,2,4]triazolo[4,3-a]azepine], the remaining activity at 10 µM worked out at 10.4%.
